{
  "source": "paper PMC7615550",
  "about": "“Structural mechanism of outer kinetochore Dam1:Ndc80 complex assembly on microtubules” (Science (New York, N.Y.), 2023)",
  "binders": {"B1": {"name": "Nuf2 subunit of the Ndc80 complex (natural protein, S. cerevisiae)", "chain": "MSRNQDVFPILDLQELVICLQSCDFALATQENISRPTSDYMVTLYKQIIENFMGISVESLLNSSNQETGDGHLQEENENIYLDTLNVLVLNKICFKFFENIGVQDFNMTDLYKPEAQRTQRLLSAVVNYARFREERMFDCNSFILQMESLLGQLRSKFDDYNLIQQQLKQYEDVDGDNIPDEQELQKLEEQNKELEIQLKKLTKIQETLSIDYNDYKISKQSIFKDLEALSFQIVELESNRDKLIKISNTDMEELSEGIKELNDLLIQRKKTLDDLTAQQKNLQDTVTTFETIISELYDVLRIISSEVQESNRTETELVGLKQNLINNKLKLMNVLETGIMYKLEILQEQLDLQLKNLEKLSQDTKEESRLNDTKLMDLQIKYENEIKPKIDKTDIFIQEELISGKINKLNDEIKQLQKDFEVEVKEIEIEYSLLSGHINKYMNEMLEYMQ", "notes": "Nuf2, S. cerevisiae, as a subunit of the reconstituted Ndc80 complex; Stood in the assay inside the whole Ndc80c; also called Nuf2^CH; Nuf2^CC; source: purified as part of Ndc80c"}},
  "target": "T1, Ndc80 subunit of the Ndc80 complex (S. cerevisiae, UniProt P40460 1-691)",
  "T1 construct": "Ndc80, S. cerevisiae, as a subunit of the reconstituted Ndc80 complex; Stood in the assay inside the whole Ndc80c; also called Ndc80^CH; Ndc80^CC; source: purified as part of Ndc80c",
  "T1 sequence": "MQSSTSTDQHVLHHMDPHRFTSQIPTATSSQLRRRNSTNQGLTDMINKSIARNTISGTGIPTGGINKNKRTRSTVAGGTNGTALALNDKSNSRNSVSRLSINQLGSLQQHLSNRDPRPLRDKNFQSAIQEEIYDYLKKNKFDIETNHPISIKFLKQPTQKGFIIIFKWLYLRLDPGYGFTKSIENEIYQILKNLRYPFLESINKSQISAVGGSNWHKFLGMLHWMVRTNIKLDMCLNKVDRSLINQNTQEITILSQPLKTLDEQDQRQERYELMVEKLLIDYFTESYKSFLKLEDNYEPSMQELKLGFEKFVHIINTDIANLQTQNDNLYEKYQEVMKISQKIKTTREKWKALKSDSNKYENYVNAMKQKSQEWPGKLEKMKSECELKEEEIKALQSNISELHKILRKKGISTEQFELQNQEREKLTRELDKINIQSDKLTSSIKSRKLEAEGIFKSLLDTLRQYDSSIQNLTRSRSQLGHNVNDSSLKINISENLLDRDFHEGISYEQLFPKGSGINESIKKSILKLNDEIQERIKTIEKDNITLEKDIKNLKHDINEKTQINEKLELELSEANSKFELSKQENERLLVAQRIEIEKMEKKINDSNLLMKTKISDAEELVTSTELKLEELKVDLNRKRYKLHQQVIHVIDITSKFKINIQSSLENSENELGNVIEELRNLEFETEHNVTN",
  "assay": "cryo-EM structure; outer kinetochore Dam1c:Ndc80c:microtubule complexes assembled on cryo-EM grids by step-wise addition of taxol-stabilized microtubules, Ndc80c, and Dam1c",
  "details": "both partners purified",
  "data": [
    {"binder": "B1", "values": [
      {"measurement": "binding result", "result": "binds"}
    ]}
  ]
}
